This passage reports Ratio results from ChEMBL document CHEMBL4020826 (J Med Chem, 2018).

The nature of data set [1]: Ratio of drug level in Sprague-Dawley rat CSF to plasma at 0.3 mg/kg, administered as single dose measured after 1 hr post dose by LC-MS/MS analysis. Conditions: strain Sprague-Dawley.
Data set [2] can be described thus: Ratio of EC50 for recombinant human mGlu2 receptor to drug level in Sprague-Dawley rat CSF at 3 mg/kg, sc.
Data set [3] is described as follows: Ratio of drug level in Sprague-Dawley rat CSF to plasma at 5 mg/kg, sc administered via infusion by LC-MS/MS analysis. Conditions: strain Sprague-Dawley.
The nature of data set [4]: Ratio of drug level in Sprague-Dawley rat CSF to plasma at 1.5 mg/kg, sc administered via infusion by LC-MS/MS analysis. Conditions: strain Sprague-Dawley.
A short description of data set [5]: Ratio of drug level in Sprague-Dawley rat CSF to plasma at 10 mg/kg, administered as single dose measured after 1 hr post dose by LC-MS/MS analysis. Conditions: strain Sprague-Dawley.
Data set [6] can be described thus: Ratio of EC50 for recombinant human mGlu3 receptor to drug level in Sprague-Dawley rat CSF at 3 mg/kg, sc.
Data set [7] can be described thus: Ratio of drug level in Sprague-Dawley rat CSF to plasma at 3 mg/kg, administered as single dose measured after 1 hr post dose by LC-MS/MS analysis. Conditions: strain Sprague-Dawley.
Data set [8] is described as follows: Ratio of drug level in Sprague-Dawley rat CSF at 3 mg/kg, sc to EC50 for recombinant human mGlu2 receptor.
A short description of data set [9]: Ratio of EC50 for recombinant human mGlu3 receptor to drug level in Sprague-Dawley rat CSF at 0.3 mg/kg, sc.
The nature of data set [10]: Ratio of drug level in Sprague-Dawley rat CSF to plasma at 1 mg/kg, administered as single dose measured after 1 hr post dose by LC-MS/MS analysis. The following applies: strain Sprague-Dawley.
Data set [11] in a line: Ratio of drug level in Sprague-Dawley rat CSF to plasma at 15 mg/kg, sc administered via infusion by LC-MS/MS analysis. The following applies: strain Sprague-Dawley.
Data set [12] in a line: Ratio of drug level in Sprague-Dawley rat CSF to plasma at 0.1 mg/kg, administered as single dose measured after 1 hr post dose by LC-MS/MS analysis. Conditions: strain Sprague-Dawley.
Data set [13] in a line: Ratio of EC50 for recombinant human mGlu2 receptor to drug level in Sprague-Dawley rat CSF at 0.3 mg/kg, sc.

Regarding `COc1cccc(C(=O)N[C@H]2C[C@@](N)(C(=O)O)[C@@H]3[C@@H](C(=O)O)[C@@H]32)c1`, the Ratio in data set [1] stood at 0.9; in [2] it was 0.7; in [3], 1.9%; in [4], 2.1%; in data set [5] it was 1; in data set [6], 157. In addition, the Ratio in data set [7] was 1; in [8] it was 1.5; in [9], 15; in [10], 0.8 to 1.4; in [11] it was 2.7%; in [12], 0.9. In addition, the Ratio in data set [13] was 7.
